Assay results as given in patent publication US11738082B2, “High concentration protein formulations with reduced viscosity” (Bhami's Research Laboratory, Pvt. Ltd., priority 2017, dated 2023).

System: Human Gamma Globulin (HGG), GLOBUCEL®
Test: Viscosity of aqueous solutions of Human Gamma Globulin (Cambridge VISCOlab5000 or DV2T cone and plate viscometer)
Settings: HGG 297 mg/mL; excipient 10 mg/mL (31 mM); 25 mM histidine buffer pH 6.0; contains 0.04% EDTA, 0.1% octyl glucopyranoside, 50 mM NaCl, 10 mg/mL sorbitol

Caffeine Nicotinate
Viscosity (cP) @ 25° C.: 37 cP
